This assay addresses Endothelial PAS domain-containing protein 1 (Homo sapiens, UniProt Q99814).

The chains behind the UniProt entries cited, without tags or fusion partners. Where a name states a change or a piece, a line headed by the entry shows the natural chain unless it says otherwise.
UniProt Q99814: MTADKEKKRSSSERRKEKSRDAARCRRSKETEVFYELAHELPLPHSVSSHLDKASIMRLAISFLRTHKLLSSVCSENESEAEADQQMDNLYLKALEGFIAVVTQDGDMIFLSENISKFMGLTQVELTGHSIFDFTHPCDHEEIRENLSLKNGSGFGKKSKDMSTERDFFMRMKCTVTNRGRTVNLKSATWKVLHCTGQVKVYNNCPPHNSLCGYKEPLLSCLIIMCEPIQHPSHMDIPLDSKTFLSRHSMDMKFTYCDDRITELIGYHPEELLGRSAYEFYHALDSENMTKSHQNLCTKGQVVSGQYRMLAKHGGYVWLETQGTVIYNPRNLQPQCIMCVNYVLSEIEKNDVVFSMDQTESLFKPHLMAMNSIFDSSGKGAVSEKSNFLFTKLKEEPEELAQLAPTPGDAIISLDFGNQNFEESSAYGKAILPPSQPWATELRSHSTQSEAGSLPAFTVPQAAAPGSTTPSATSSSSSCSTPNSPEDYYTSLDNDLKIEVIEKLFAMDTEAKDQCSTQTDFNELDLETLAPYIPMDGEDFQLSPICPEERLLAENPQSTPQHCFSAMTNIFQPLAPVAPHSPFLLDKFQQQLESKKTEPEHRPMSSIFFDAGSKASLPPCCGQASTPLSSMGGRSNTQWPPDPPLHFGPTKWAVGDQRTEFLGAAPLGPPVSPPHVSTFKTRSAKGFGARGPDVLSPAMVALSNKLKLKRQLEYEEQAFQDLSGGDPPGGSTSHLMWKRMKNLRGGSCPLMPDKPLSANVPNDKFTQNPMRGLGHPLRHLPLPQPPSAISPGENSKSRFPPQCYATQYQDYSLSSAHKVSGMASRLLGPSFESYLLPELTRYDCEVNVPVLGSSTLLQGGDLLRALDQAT

The text below walks through data of ChEMBL document CHEMBL4831546, “Discovery of a Potent and Orally Bioavailable Hypoxia-Inducible Factor 2α (HIF-2α) Agonist and Its Synergistic Therapy with Prolyl Hydroxylase Inhibitors for the Treatment of Renal Anemia” (J Med Chem, 2021).

With `Brc1cc(Br)cc(Nc2nsc3ccccc23)c1`, it took 1350 nM to reach a half-maximal effect (EC50).
